Laboratory results from ChEMBL document CHEMBL1138000, “Novel, potent and selective anilinoquinazoline and anilinopyrimidine inhibitors of p38 MAP kinase” (Bioorg Med Chem Lett, 2004).

Chains of the proteins cited; added tags and fusions are not shown.
UniProt P00533, whole entry: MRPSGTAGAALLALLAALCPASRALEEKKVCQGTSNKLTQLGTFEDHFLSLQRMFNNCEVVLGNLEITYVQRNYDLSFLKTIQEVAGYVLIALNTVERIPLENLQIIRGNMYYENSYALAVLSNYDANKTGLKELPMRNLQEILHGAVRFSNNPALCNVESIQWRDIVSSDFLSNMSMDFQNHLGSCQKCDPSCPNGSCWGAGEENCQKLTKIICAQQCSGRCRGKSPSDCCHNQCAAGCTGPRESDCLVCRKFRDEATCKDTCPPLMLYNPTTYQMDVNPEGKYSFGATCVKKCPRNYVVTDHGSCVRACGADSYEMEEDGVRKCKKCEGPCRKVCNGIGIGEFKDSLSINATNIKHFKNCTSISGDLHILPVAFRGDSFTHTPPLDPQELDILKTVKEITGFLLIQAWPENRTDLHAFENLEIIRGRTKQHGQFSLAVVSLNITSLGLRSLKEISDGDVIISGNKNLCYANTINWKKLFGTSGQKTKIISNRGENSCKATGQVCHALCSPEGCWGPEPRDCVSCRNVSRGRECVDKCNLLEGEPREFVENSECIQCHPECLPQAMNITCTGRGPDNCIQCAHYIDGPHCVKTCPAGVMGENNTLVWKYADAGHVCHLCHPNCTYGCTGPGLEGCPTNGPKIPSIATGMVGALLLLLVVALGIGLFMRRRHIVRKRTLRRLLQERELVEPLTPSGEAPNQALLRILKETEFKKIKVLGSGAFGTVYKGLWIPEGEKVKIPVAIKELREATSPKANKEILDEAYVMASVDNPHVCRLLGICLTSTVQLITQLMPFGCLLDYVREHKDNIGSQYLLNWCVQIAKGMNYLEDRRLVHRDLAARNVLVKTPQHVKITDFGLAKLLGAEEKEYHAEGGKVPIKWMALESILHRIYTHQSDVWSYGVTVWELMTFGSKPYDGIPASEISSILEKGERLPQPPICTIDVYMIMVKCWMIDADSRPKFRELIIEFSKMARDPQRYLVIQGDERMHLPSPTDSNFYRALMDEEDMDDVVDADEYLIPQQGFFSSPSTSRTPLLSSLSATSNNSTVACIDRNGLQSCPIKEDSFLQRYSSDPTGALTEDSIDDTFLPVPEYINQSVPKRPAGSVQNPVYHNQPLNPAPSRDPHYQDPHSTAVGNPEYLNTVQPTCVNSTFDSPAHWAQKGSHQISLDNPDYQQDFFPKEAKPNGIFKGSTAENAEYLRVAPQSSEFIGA

Molecular target: Epidermal growth factor receptor (Homo sapiens, UniProt P00533)

In the case of `COc1cc2ncnc(Nc3cccc(Cl)c3)c2cc1OC` [TYRPHOSTIN AG-1478], the IC50 is reported as 5 nM.
